Source: patent US20260232652A1, “COMBINATIONS OF DGK (DIACYLGLYCEROL KINASE) INHIBITORS” (priority 2023, published 2026)

Sequences of proteins named here, by UniProt entry; tags and fusion partners are left off. A change or cut given only in a name is not applied to a line headed by its entry.
UniProt P23743: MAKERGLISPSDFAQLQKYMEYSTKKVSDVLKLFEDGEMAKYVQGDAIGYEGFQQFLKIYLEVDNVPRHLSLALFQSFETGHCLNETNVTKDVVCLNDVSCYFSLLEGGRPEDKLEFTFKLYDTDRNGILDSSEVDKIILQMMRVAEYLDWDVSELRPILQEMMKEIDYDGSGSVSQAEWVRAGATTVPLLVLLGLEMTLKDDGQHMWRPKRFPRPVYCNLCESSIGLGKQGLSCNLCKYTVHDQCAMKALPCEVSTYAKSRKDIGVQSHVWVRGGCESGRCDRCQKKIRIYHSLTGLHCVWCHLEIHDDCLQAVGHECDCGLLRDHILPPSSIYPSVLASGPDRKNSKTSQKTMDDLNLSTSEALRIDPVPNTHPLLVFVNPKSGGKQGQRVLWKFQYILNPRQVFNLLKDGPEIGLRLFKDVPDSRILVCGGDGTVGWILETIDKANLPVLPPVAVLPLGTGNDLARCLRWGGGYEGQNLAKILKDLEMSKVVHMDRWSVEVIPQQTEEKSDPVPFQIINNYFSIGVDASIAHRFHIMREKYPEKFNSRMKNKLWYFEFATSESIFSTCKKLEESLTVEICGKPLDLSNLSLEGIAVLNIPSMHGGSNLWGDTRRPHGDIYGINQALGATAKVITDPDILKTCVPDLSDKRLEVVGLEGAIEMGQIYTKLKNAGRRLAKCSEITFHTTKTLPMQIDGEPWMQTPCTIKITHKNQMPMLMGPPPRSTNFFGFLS

Assays:
[1] = target: T1, human DGKalpha (Homo sapiens, UniProt P23743); assay: Human DGKalpha kinase activity inhibition assay (ADP-Glo); type: biochemical; conditions: IC50 DGKzeta versus IC50 DGKalpha
T1 construct: made in house; host or cells: baculovirus-infected Sf9 insect cells
Experimental: Human DGKalpha inhibitory activity of compounds of the present invention was quantified employing the human DGKalpha kinase activity assay as described in the following paragraphs. In essence, the enzyme activity was measured by quantification of the adenosine-di-phosphate (ADP) generated as a co-product of the enzyme reaction via the “ADP-Glo™ Kinase Assay” kit from the company Promega. This detection system works as follows: In a first step the ATP not consumed in the kinase reaction is quantitatively converted to cAMP employing an adenylate cyclase (“ADP-Glo-reagent”), then the adenylate cyclase is stopped and the ADP generated in the kinase reaction converted to ATP, which subsequently generates in a luciferase-based reaction a glow-luminescence signal (“Kinase Detection Reagent”).
C-terminally FLAG-tagged, recombinant full-length human DGKalpha (expressed in baculovirus infected insect cells, purified using anti-Flag pulldown and size exclusion chromatography as described below, DGKa_hu_1) was used as enzyme. As substrate for the kinase 1,2-dioleoyl-sn-glycerol, reconstituted in octyl-β-D-glucopyranoside micelles, was used. […] Then 35 volumes of 50 mM MOPS buffer (pH 7.4) were added to yield a solution of 0.28 mM 1,2 dioleoyl-sn-glycerol and 200 mM octyl-β-D-glucopyranoside, which was aliquoted, flash-frozen in liquid nitrogen, and stored at −20° C. until use. […]

[2] = tested on: Human Colo-800 melanoma cells; assay: Tumor cell killing assay (Colo-800 cells with MART1 T cells, xCELLigence cell index); type: cell-based; conditions: 46 hours after start of co-culture
Experimental: Human Colo-800 melanoma cells were seeded in a 96-well E-Plate (2×10^4 cells/well) for detection of cell adherence [=cell index (CI)], directly correlating with tumor cell viability and proliferation. […] Tumor cell index was quantified in five-minute intervals for a >90 hours period. Figure AA depicts the normalized cell index of the technical triplicates for each treatment group 46 hours after the start of co-culture. […] For details of the xCELLigence #104 assay, the reader is referred to J. Chou et al., Immunother. 2012 February; 35(2): 131-141, FIG. 6.

`Cc1ccc2oc(C3CCN(c4c(C(N)=O)c(=O)n(C)c5ccc(F)cc45)CC3)nc2c1` [DGKalpha inhibitor A, 6-fluoro-1-methyl-4-[4-(5-methyl-1,3-benzoxazol-2-yl)piperidin-1-yl]-2-oxo-1,2-dihydroquinoline-3-carboxamide] was tested, and the “selectivity over DGKzeta” value [1] was “over 100 fold”, the “tumor cell index (TCI)” value ([2]; 1 nM (combination: 1 nM each)) was “neither DGKalpha inhibitor A nor DGKzeta inhibitor A′ exercise a major effect” and the “tumor cell index (TCI)” value ([2]; 50 nM) was “only moderate”. The “tumor cell index (TCI)” value ([2]; monotherapy 1 nM, 10 nM, 50 nM) was “dose-dependent reduction of the TCI”.
